The entries are a selection whose mix differs from that of the whole data set. The source made the active and inactive calls.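 The calls were made as follows: active = fluorescence slope higher than the sample average by over 3 SD (cut at about -0.22 in these data, passing the limit was not always enough); inactive = the rest.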
Target: Voltage-gated potassium channel subunit beta-2 (Rattus norvegicus) (UniProt P62483)
Test: KvBeta enzyme negative modulators, primary screen, biochemical, NADPH fluorescence (AID 622);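 also: slope of raw intensity against log time taken from 70 to 1610 s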
Conditions: recombinant KvBeta, 4-cyanobenzaldehyde reduction, at 10 µM, hits give high values

Sequences of proteins named here, by UniProt entry; tags and fusion partners are left off.
UniProt P62483, whole entry: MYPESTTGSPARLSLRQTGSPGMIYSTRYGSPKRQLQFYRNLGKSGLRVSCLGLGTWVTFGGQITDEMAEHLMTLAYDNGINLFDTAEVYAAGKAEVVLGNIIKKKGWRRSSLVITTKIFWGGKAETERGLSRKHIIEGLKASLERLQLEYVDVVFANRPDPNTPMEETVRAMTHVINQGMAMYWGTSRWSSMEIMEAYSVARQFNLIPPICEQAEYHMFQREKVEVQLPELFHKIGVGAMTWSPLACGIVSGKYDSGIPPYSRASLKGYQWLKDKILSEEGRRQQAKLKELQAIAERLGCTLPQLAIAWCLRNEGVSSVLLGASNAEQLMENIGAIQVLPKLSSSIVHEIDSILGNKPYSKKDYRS

Structure (SMILES)	fluorescence slope
Fc1ccccc1NC1CCN(Cc2ccccc2)CC1	inactive: -0.468
